By UniProt entry, the sequences of proteins in these tests, tags left out. Residues count along the entry.
UniProt P05067, 672-713 limits assumed: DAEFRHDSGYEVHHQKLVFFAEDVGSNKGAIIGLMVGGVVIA

In patent US9932333B2, “Benzothiazole compound and medicine containing same” (JAPAN SCIENCE AND TECHNOLOGY AGENCY, priority 2014, dated 2018):

Biological target: Aβ1-42 aggregated in advance (Homo sapiens, UniProt P05067)
Assay: Aβ affinity (Kd association curve from fluorescence intensity)
Format: binding
Conditions: aggregated Aβ1-42 0.5 μM, phosphate buffer pH 7.4, room temperature 1 hour
Source text: For compound (1a), the excitation wavelength was set to 460 nm, and the fluorescence wavelength was set to 515 nm. A Kd association curve was obtained from the fluorescence intensity using KaleidaGraph 4.5 (Synergy Software, Reading, Pa.).

Compound `Cc1ccc2c(c1)sc(-c1ccc(N(C)C)cc1)[n+]2C` [thioflavin T, reference compound] has a Kd of 2.9 µM.
